For 3 compounds, IC50 results are on record in ChEMBL document CHEMBL1144187, “Pharmacophore modeling and virtual screening for designing potential PLK1 inhibitors” (Bioorg Med Chem Lett, 2008).

pIC50: −log10 of the molar value.

The target of the assay is Serine/threonine-protein kinase PLK1 (Homo sapiens, UniProt P53350).

Compound `CCN(CC)CCNC(=O)c1c[nH]c2ccc(N/C=c3/s/c(=C(/C#N)C(=O)NCC(F)(F)F)n(CC)c3=O)cc12` showed a pIC50 of 7.39.

For `CCOC(=O)/C(C#N)=c1\s/c(=C/Nc2ccc(C(C)=O)cc2)c(=O)n1CC`, the pIC50 is 7.09.

`CCOC(=O)/C(C#N)=c1\s/c(=C/Nc2cccc(C)c2)c(=O)n1CC` gave a pIC50 of 7.34.
